Values quoted from earlier work in patent US7115708B2 (priority 2001, dated 2006).

By UniProt entry, the sequences of proteins in these tests, tags left out. Where a name states a change or a piece, a line headed by the entry shows the natural chain unless it says otherwise.
UniProt P32245: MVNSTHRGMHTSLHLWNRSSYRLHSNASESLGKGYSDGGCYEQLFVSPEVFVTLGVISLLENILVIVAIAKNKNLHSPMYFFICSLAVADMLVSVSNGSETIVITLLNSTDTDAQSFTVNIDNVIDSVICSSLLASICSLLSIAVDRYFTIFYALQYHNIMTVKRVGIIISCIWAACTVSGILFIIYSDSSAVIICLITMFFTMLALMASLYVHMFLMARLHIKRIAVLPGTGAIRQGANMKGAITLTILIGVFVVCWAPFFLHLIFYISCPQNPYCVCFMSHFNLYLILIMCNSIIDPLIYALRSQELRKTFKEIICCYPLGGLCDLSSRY
UniProt P33032: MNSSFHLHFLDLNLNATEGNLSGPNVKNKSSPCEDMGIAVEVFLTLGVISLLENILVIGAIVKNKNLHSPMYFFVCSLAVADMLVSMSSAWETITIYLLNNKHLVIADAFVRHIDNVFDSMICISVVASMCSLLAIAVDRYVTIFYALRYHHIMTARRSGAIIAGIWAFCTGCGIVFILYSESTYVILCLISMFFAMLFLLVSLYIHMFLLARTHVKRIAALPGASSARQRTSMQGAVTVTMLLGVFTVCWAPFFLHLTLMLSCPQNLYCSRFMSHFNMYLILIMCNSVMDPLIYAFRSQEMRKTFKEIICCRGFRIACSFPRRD
UniProt P41968: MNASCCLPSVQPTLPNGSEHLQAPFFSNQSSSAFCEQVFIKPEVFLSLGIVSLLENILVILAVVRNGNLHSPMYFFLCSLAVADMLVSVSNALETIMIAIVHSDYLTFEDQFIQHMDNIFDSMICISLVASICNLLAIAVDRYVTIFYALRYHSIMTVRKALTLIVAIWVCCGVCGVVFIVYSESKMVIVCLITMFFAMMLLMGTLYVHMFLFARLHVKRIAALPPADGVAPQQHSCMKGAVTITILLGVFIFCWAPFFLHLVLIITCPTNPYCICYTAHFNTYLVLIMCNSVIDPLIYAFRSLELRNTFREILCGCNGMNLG
UniProt P32745: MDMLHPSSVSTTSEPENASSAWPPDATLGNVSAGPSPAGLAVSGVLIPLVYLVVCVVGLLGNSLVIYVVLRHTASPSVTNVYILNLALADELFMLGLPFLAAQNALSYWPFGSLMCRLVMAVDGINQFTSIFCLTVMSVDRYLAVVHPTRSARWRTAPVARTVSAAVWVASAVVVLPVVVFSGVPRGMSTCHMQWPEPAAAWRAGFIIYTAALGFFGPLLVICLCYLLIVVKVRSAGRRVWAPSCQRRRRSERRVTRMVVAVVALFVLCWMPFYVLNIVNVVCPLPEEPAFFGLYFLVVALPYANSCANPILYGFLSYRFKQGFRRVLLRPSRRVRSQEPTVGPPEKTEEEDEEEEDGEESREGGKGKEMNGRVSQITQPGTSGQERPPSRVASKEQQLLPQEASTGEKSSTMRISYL
UniProt P35346: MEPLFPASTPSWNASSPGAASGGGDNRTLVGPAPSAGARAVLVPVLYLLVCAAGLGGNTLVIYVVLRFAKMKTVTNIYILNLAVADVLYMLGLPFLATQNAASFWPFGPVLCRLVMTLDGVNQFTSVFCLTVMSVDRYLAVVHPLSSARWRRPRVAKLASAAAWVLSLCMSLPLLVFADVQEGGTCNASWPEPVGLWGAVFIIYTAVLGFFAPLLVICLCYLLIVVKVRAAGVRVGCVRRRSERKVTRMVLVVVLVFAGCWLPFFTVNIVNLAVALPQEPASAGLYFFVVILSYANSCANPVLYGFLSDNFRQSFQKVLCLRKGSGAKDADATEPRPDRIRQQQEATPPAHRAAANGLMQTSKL
UniProt P30874: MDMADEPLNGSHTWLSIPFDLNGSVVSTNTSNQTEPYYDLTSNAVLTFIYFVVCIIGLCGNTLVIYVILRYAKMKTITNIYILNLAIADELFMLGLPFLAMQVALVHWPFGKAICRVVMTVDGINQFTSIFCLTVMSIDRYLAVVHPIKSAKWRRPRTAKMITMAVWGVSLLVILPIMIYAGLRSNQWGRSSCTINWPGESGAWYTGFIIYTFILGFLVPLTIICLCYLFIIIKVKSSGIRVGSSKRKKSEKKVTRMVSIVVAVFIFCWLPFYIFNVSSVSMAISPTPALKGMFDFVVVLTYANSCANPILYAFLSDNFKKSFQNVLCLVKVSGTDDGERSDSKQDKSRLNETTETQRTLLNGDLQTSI
UniProt P31391: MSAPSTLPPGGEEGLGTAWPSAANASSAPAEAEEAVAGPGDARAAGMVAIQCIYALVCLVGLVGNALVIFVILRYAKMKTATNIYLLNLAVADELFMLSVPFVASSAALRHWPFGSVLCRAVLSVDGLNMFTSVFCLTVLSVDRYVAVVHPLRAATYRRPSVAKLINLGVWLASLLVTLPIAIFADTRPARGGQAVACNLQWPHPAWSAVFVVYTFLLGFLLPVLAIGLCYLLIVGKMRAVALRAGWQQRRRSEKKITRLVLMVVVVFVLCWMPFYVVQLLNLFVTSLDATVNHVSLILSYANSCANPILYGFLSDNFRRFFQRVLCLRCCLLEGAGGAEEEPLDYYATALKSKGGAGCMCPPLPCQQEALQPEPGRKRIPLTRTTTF
UniProt P30872: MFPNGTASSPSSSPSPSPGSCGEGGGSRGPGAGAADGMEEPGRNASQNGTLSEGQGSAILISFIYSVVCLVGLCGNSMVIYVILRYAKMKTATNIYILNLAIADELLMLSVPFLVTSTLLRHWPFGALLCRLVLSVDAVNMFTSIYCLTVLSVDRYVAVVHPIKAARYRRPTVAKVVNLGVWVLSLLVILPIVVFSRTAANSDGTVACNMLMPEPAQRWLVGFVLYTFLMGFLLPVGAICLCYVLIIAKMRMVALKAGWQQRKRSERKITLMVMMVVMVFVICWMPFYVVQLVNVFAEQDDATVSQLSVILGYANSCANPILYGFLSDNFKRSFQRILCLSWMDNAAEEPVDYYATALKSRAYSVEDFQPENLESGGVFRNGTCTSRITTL
UniProt Q99705: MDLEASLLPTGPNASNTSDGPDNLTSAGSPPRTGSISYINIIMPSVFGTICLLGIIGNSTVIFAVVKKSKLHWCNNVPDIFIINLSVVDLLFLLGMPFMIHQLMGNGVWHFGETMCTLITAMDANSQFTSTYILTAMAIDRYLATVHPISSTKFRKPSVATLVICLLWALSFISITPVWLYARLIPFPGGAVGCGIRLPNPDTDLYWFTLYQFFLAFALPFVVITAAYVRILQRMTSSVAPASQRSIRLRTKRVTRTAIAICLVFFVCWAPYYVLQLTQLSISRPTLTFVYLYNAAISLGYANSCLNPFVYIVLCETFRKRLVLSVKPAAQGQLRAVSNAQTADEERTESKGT

Experiments:
[1] = molecular target: Melanocortin MC4 (Homo sapiens, UniProt P32245); settings: read-out: Kd of the radioligand (historical value); Human recombinant HEK-293 cells; cited from earlier work
[2] = molecular target: Melanocortin MC5 (Homo sapiens, UniProt P33032); settings: read-out: Kd of the radioligand (historical value); Human recombinant HEK-293 cells; cited from earlier work
[3] = molecular target: Melanocortin MC3 (Homo sapiens, UniProt P41968); settings: read-out: Kd of the radioligand (historical value); Human recombinant HEK-293 cells; cited from earlier work
[4] = system: Melanocortin MC1; settings: read-out: Kd of the radioligand (historical value); Human recombinant CHO cells; cited from earlier work
[5] = molecular target: Somatostatin sst3 (Homo sapiens, UniProt P32745); settings: read-out: Kd of the radioligand (historical value); Human recombinant CHO-K1; cited from earlier work
[6] = molecular target: Somatostatin sst5 (Homo sapiens, UniProt P35346); settings: read-out: Kd of the radioligand (historical value); Human recombinant HEK-293 EBNA cells; cited from earlier work
[7] = molecular target: Somatostatin sst2 (Homo sapiens, UniProt P30874); settings: read-out: Kd of the radioligand (historical value); Human recombinant CHO-K1; cited from earlier work
[8] = molecular target: Somatostatin sst4 (Homo sapiens, UniProt P31391); settings: read-out: Kd of the radioligand (historical value); Human recombinant CHO-K1; cited from earlier work
[9] = molecular target: Somatostatin sst1 (Homo sapiens, UniProt P30872); settings: read-out: Kd of the radioligand (historical value); Human recombinant CHO-K1; cited from earlier work
[10] = molecular target: MCH (h) (Homo sapiens, UniProt Q99705); settings: read-out: Kd of the radioligand (historical value); Human recombinant CHO cells; cited from earlier work
[11] = molecular target: h-SSTR4 (Homo sapiens, UniProt P31391); settings: cited from earlier work
[12] = molecular target: h-SSTR3 (Homo sapiens, UniProt P32745); settings: cited from earlier work
[13] = molecular target: h-SSTR2 (Homo sapiens, UniProt P30874); settings: cited from earlier work
[14] = molecular target: h-SSTR5 (Homo sapiens, UniProt P35346); settings: cited from earlier work
[15] = molecular target: h-SSTR1 (Homo sapiens, UniProt P30872); settings: cited from earlier work

^125I NDP-αMSH
Kd [1]: 0.5 nM | Kd [2]: 0.53 nM | Kd [3]: 0.53 nM | Kd [4]: 0.62 nM

^125I Somatostatin-14
Kd [5]: 0.79 nM | Kd [6]: 0.5 nM | Kd [7]: 0.034 nM | Kd [8]: 0.87 nM | Kd [9]: 1.9 nM

^125I [Phe^13, Tyr^19]-MCH
Kd [10]: 0.05 nM

^111In-DTPA-DPhe1-octreotide
binding to h-SSTR4 (in words) [11]: does not bind | Kd ([12]; moderate affinity): 10 to 100 nM | Kd ([13]; high affinity): 0.1 to 5 nM | Kd ([14]; high affinity): 0.1 to 5 nM | binding to h-SSTR1 (in words) [15]: does not bind

^111In/^90Y-DOTA-lanreotide
binding to h-SSTR4 (in words) [11]: high affinity | binding to h-SSTR3 (in words) [12]: high affinity | binding to h-SSTR2 (in words) [13]: high affinity | binding to h-SSTR5 (in words) [14]: high affinity | Kd ([15]; lower affinity): 200 nM
